{"source": "IntAct's records for PubMed 19632990", "parents": {"B1": {"name": "Ficolin-2 (Homo sapiens), Q15485 (parent)", "chain": "MELDRAVGVLGAATLLLSFLGMAWALQAADTCPEVKMVGLEGSDKLTILRGCPGLPGAPGPKGEAGTNGKRGERGPPGPPGKAGPPGPNGAPGEPQPCLTGPRTCKDLLDRGHFLSGWHTIYLPDCRPLTVLCDMDTDGGGWTVFQRRVDGSVDFYRDWATYKQGFGSRLGEFWLGNDNIHALTAQGTSELRVDLVDFEDNYQFAKYRSFKVADEAEKYNLVLGAFVEGSAGDSLTFHNNQSFSTKDQDNDLNTGNCAVMFQGAWWYKNCHVSNLNGRYLRGTHGSFANGINWKSGKGYNYSYKVSEMKVRPA"}}}
{"variants_of": "B1", "details": "with ptx3_human PTX3, P26022"}
{"variant": "T236M", "effect of a mutation on the interaction": "decreasing interaction strength"}
